Ab-95 light chain CDR variants: yeast mating affinities

Reference: Engelhart et al. 2022, doi:10.1038/s41597-022-01779-4. File: FLAb, binding data.

The target is the same throughout: PDVDLGDISGINAS, from the HR2 region of SARS-CoV-2 spike.

Ab-95 is the parent antibody, in scFv form: VH, then three GGGGS repeats, then VL. The heavy chain is unchanged in all variants.
VH: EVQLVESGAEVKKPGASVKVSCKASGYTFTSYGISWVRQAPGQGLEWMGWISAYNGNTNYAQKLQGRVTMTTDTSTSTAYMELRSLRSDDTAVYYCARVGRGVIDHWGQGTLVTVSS
VL: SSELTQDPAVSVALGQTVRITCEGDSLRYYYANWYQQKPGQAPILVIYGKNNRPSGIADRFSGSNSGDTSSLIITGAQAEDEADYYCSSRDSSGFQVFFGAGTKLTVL

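Phage display of a naive human antibody library on the peptide gave the parent. Variants in AAYL52 differ from the parent at up to three CDR positions; double and triple changes were sampled at random. The assay is AlphaSeq: two haploid yeast populations carry antibody and antigen on their surface. Mating (16 h, 30 °C) was followed by selection of diploids and sequencing of their barcodes. Scores were corrected for input abundance and mapped to Kd with protein pairs of known affinity run in the same pool. The assay was run in three technical replicates.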

Substitutions are numbered in sequence along the VL above, starting at 1 (not Kabat). All variants listed here change Q96 of the VL, counted from its first residue. Scale: log10 of Kd in nM, estimated from mating counts; low values are strong binders. A mean of the replicates is given; it leaves out those without a signal. A pair that was not seen in that replicate is written "nd"; this usually means weak binding, but a binder can also be missed. Parent in this assay: reference entry 2.31, copy in this library 2.25. As a blank, each scFv also met three strains without target: over library AAYL52, 28% of these pairings were detected, typically at 3.91 and seldom below 2.90. The control count says in how many pairings with the empty strains this scFv gave a signal.

For E23V Y31V Q96L, the assay gave 3.28, 2.73, 2.74 (mean 2.92; controls 4 of 9). For R28P S55I Q96L, the assay gave 2.48, 2.48, 3.04 (mean 2.67; controls 5 of 9). For R90I G94C Q96N, the assay gave nd, nd, nd (controls 2 of 9). The variant R28P F95K Q96I showed nd, nd, nd (controls 0 of 9). For E23H K50D Q96E, the assay gave 1.95, 1.68, 1.50 (mean 1.71; controls 2 of 9). The variant S88I S89V Q96W showed nd, nd, nd (controls 4 of 9). For Y31E N51I Q96R, the assay gave 2.71, 2.40, 1.99 (mean 2.37; controls 3 of 9).

For Y30F S88M Q96T, the assay gave 3.15, 3.28, 4.52 (mean 3.65; controls 5 of 9). With G94L Q96H the result was 2.93, 3.04, 3.06 (mean 3.01; controls 2 of 9). For N51C S92F Q96M, the assay gave 4.25, 3.65, nd (mean 3.95; controls 4 of 9). With R28T Y30W Q96F the result was 3.20, 4.04, 3.48 (mean 3.57; controls 3 of 9). With N52E Q96S the result was 2.19, 2.13, 2.03 (mean 2.12; controls 2 of 9). The variant A32M S93I Q96D gave 3.34, nd, nd (controls 3 of 9). With L27F N33V Q96P the result was nd, 3.95, nd (controls 5 of 9).

The variant S93T G94L Q96N showed 2.40, 2.77, 3.35 (mean 2.84; controls 1 of 9). For N51K S88G Q96C, the assay gave 2.76, 3.93, 4.19 (mean 3.63; controls 4 of 9). The variant G24A D91I Q96N showed 3.20, 2.92, 2.86 (mean 2.99; controls 3 of 9). The variant P54D S88G Q96G gave nd, 3.60, nd (controls 5 of 9). For G24P S89Y Q96L, the assay gave 3.59, 4.71, 4.03 (mean 4.11; controls 3 of 9). For Y31Q S92E Q96T, the assay gave 2.23, 2.08, 1.90 (mean 2.07; controls 1 of 9). With D25E R53G Q96V the result was nd, nd, 3.86 (controls 2 of 9).

For S26N S92C Q96N, the assay gave 3.75, nd, nd (controls 2 of 9). The variant N51W S88H Q96W showed 3.29, nd, 4.19 (mean 3.74; controls 2 of 9). The variant N52P S89F Q96P showed nd, nd, nd (controls 0 of 9). The variant E23W Q96F F98N gave nd, nd, nd (controls 1 of 9). The variant K50L R53K Q96V gave 2.49, 3.47, 2.53 (mean 2.83; controls 3 of 9). For S89I G94K Q96M, the assay gave 5.55, 5.84, nd (mean 5.70; controls 0 of 9). With Y29T Q96F the result was 2.47, 1.89, 1.71 (mean 2.02; controls 5 of 9).

With Y29N A32V Q96L the result was 5.29, nd, nd (controls 0 of 9). For A32T Q96W, the assay gave 2.58, 2.49, 3.05 (mean 2.71; controls 0 of 9). The variant Q96I showed 2.77, 2.38, 2.31 (mean 2.49; controls 5 of 9). The variant L27H Q96M V97E showed 3.58, 3.13, 3.51 (mean 3.40; controls 4 of 9). With D91C S93R Q96W the result was 2.81, 3.15, 3.46 (mean 3.14; controls 5 of 9). With D25C S26G Q96K the result was 2.62, 2.70, 2.72 (mean 2.68; controls 3 of 9). For R28P S92P Q96I, the assay gave 2.53, 2.33, 3.38 (mean 2.75; controls 3 of 9).

For D25N N33C Q96N, the assay gave 4.98, 2.84, nd (mean 3.91; controls 2 of 9). The variant S88R S92T Q96E showed 3.44, 3.50, nd (mean 3.47; controls 1 of 9). The variant L27K R53K Q96P gave nd, 5.15, nd (controls 1 of 9). With R28V A32K Q96V the result was nd, 5.07, nd (controls 3 of 9). For N33D D91S Q96E, the assay gave 3.77, 2.97, nd (mean 3.37; controls 1 of 9). With A32W R53L Q96I the result was 3.19, 4.42, 4.03 (mean 3.88; controls 2 of 9). For S88N F95K Q96S, the assay gave nd, 2.50, nd (controls 1 of 9).